Test results: article PMC11174489, “In Vitro Activation of Human Adrenergic Receptors and Trace Amine-Associated Receptor 1 by Phenethylamine Analogues Present in Food Supplements” (Nutrients, 2024)

Assays:
[1] = target: T1, human adrenergic receptor (ADR) α1A (Homo sapiens, UniProt P35348); assay: ADRα1A activation, Ca2+ influx (Fluo-8) in overexpressing chem-1 cells; type: cell-based
T1 construct: host or cells: rat chem-1 cells
T1 sequence (P35348 1-466): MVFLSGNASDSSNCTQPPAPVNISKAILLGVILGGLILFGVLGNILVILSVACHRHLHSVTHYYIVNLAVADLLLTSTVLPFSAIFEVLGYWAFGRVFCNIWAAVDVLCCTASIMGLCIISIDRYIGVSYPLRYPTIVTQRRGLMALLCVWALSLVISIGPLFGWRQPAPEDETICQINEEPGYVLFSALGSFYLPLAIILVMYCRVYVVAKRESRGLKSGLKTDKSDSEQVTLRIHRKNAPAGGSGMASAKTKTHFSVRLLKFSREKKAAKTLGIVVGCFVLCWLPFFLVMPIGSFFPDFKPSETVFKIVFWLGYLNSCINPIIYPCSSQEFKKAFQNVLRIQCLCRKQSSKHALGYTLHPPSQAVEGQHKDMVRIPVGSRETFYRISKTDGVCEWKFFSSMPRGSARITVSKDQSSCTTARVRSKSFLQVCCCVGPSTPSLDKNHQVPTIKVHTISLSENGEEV

[2] = target: T2, human trace amine-associated receptor 1 (TAAR1) (Homo sapiens, UniProt Q96RJ0); assay: TAAR1 activation, intracellular cAMP (ELISA) in HEK293T cells stably expressing human TAAR1; type: cell-based
T2 construct: expressed in transfected cells
T2 sequence (Q96RJ0 1-339): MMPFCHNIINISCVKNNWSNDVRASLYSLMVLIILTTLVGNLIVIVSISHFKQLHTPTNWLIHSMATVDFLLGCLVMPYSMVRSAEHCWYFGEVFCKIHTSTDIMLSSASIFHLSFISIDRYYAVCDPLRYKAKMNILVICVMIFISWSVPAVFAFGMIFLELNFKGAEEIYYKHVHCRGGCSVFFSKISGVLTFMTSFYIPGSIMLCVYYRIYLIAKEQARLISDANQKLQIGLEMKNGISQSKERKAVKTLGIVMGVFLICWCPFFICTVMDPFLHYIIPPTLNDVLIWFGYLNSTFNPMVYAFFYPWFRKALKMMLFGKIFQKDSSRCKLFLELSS

Which “ADRα1A Emax” value ([1]; % of maximal signal obtained by adrenaline, average (95% CI)) does the source give for Methyltyramine here?
The value was “-”.

And the EC50 ([1]; Ca2+ response, chem-1 cells, average (95% confidence interval), 7–9 experiments)?
The EC50 was > 300 µM.

What about the “TAAR1 Emax” value ([2]; % of maximal cAMP level obtained by phenethylamine, average (95% CI)) of the same substance?
The value was 83 (78–87) %.

And the EC50 ([2]; cAMP, HEK293T-hTAAR1 cells, 1 h exposure, average (95% confidence interval), 3–5 experiments)?
The EC50 was 23 µM.
